## Measured fraction unbound values of organic chemicals

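OPERA's authors assembled the values from existing databases and did not measure them anew. One number stands for a compound and property, with no spread given. Method and conditions are not stated for these values. A value may pool stereoisomers or salt forms, and the file does not say which form was measured. Some upstream entries may be estimates or bounds without being marked so.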

fu is the fraction unbound in human plasma, from 0 to 1. "n/a" marks a cell with nothing listed here.

| structure (SMILES) | name | plasma fu |
|---|---|---|
| O=C(O)c1cc(O)c(O)c(O)c1 | Gallic acid | 0.682 |
| CC[N+](C)(C)Cc1ccccc1Br | Bretylium | 0.93 |
| NC(=O)C1CO1 (stereo not given) | Glycidamide | 0.98 |
| O=c1[nH]c(=O)c2c[nH]nc2[nH]1 | Oxypurinol | 0.995 |
| COc1ccc2c(c1)c(CC(=O)OCC(=O)O)c(C)n2C(=O)c1ccc(Cl)cc1 | Acemetacin | 0.1 |
| CC(=O)O[C@H]1C[C@@H]2CC[C@@H]3[C@H](CC[C@@]4(C)[C@H]3C[C@H]([N+]3(C)CCCCC3)[C@@H]4OC(C)=O)[C@@]2(C)C[C@@H]1N1CCCCC1.[Br-] | Vecuronium bromide | 0.25 |
| C[C@@H](c1ncncc1F)[C@](O)(Cn1cncn1)c1ccc(F)cc1F | Voriconazole | 0.4738 |
| CN(C)CCn1nnnc1SCC1=C(C(=O)O)N2C(=O)[C@@H](NC(=O)Cc3csc(N)n3)[C@H]2SC1 | Cefotiam | 0.6 |
| O=C1[C@@H]2[C@H]3CC[C@H](C3)[C@@H]2C(=O)N1CCCCN1CCN(c2ncccn2)CC1 | Tandospirone | 0.7 |
| CCOc1ccc(NC(C)=O)cc1 | Phenacetin | 0.6222 |
| Cn1c(=O)c2c(ncn2CCCNCC(O)c2cc(O)cc(O)c2)n(C)c1=O (stereo not given) | Reproterol | 0.5 |
| Cc1ccc(O)cc1 | p-Cresol | 0.3259 |
| Oc1cccc(O)c1 | Resorcinol | 0.7448 |
| N=C(N)N1CCc2ccccc2C1 | Debrisoquin | 0.15 |
| CC1(C)S[C@@H]2[C@H](NC(=O)[C@@H](c3ccccc3)S(=O)(=O)O)C(=O)N2[C@H]1C(=O)O | D-(-)-Sulbenicillin | 0.5 |
| CNCC[C@H](Oc1cccc2ccccc12)c1cccs1 | Duloxetine | 0.1 |
| CCN(CC)CCNC(=O)c1cc(Br)c(N)cc1OC | Bromopride | 0.6 |
| c1ccc2ncccc2c1 | Quinoline | 0.2036 |
| CN(C)c1cc(NC(=O)CNC(C)(C)C)c(O)c2c1C[C@H]1C[C@H]3[C@H](N(C)C)C(O)=C(C(N)=O)C(=O)[C@@]3(O)C(O)=C1C2=O | Tigecycline | 0.2 |
| CN(C)C(=O)CCSC(SCCC(=O)O)c1cccc(/C=C/c2ccc3ccc(Cl)cc3n2)c1 (stereo partly drawn) | MK-571 | 0.0034 |
| CC(CCC(O)=O)(c1ccc(O)cc1)c1ccc(O)cc1 | n/a | 0.163 |
| NC(=O)Cc1cccc(C(=O)c2ccccc2)c1N | Nepafenac | 0.009 |
| CCOc1ccc2ccccc2c1C(=O)N[C@@H]1C(=O)N2[C@@H]1SC(C)(C)[C@@H]2C(=O)O | Nafcillin | 0.1243 |
| CC#CCC(C)[C@H](O)/C=C/[C@@H]1[C@H]2C/C(=C/CCCC(=O)O)C[C@H]2C[C@H]1O (stereo partly specified) | Iloprost | 0.4 |
| Nc1ccc(S(=O)(=O)Nc2ccnn2-c2ccccc2)cc1 | Sulfaphenazole | 0.01718 |
| CC(C(=O)O)c1cccc(Oc2ccccc2)c1 (stereo not given) | Fenoprofen | 0.0065 |
| C=CC[N@@+]12CC[C@@]34c5ccccc5N5C=C6[C@H]7C[C@H]8[C@@]9(CC[N@@+]8(CC=C)C/C7=C/CO)c7ccccc7N(C=C([C@@H](C[C@@H]31)/C(=C\CO)C2)[C@H]54)[C@@H]69 | Alcuronium | 0.6 |
| CN(Cc1nc2c(N)nc(N)nc2nc1O)c1ccc(C(=O)N[C@@H](CCC(=O)O)C(=O)O)cc1 | 7-Hydroxymethotrexate | 0.13 |
| O=C1N(CC2CO2)C(=O)N(CC2CO2)C(=O)N1CC1CO1 (stereo not given) | n/a | 0.402 |
| Cc1ncc([N+](=O)[O-])n1CC(O)CCl (stereo not given) | Ornidazole | 0.85 |
| N[C@@H](C(=O)N[C@@H]1C(=O)N2C(C(=O)O)=C(Cl)CS[C@H]12)c1ccccc1 | Cefaclor | 0.75 |
| C=C(CC(=O)c1ccc(-c2ccccc2Cl)cc1)C(=O)O | Itanoxone | 0.0175 |
| C[C@H](NCCc1ccc(O)cc1)[C@H](O)c1ccc(O)cc1 | Ritodrine | 0.655 |
| COCC(=O)O[C@]1(CCN(C)CCCc2nc3ccccc3[nH]2)CCc2cc(F)ccc2[C@@H]1C(C)C | Mibefradil | 0.00625 |
| COC(=O)[C@H](c1ccccc1Cl)N1CCc2sccc2C1 | Clopidogrel | 0.01649 |
| CC1(C)S[C@@H]2[C@H](NC(=O)[C@@H](NC(=O)N3CCNC3=O)c3ccccc3)C(=O)N2[C@H]1C(=O)O | Azlocillin | 0.665 |
| Cc1cccc(N2CC(CO)OC2=O)c1 (stereo not given) | Toloxatone | 0.4925 |
| CO/N=C(\C(=O)N[C@@H]1C(=O)N2C(C(=O)[O-])=C(C[n+]3cccc4c3CCC4)CS[C@H]12)c1csc(N)n1 | Cefpirome | 0.8983 |

Source: data files of OPERA 2.9 (Mansouri et al.), github.com/kmansouri/OPERA.